Assay outcomes as filed in PubChem.
Statin myotox sup: suppression of simvastatin myotoxicity; AID 602340; C2C12 myotubes + simvastatin, ATP luminescence, 48 h; scaled: DMSO 0, geranylgeraniol control 100; rescue of ATP level, % at 7.49 µM; 330,000 tested, 0.78% active;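 active means mean ATP rescue above about 67%, or every replicate alone reaching that limit, limit read from the data, passing the limit was not always enough; inconclusive means no clear call, values can overlap the other calls; inactive means mean under the limit and some replicate under it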;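 further: myotubes were challenged with 10 µM simvastatin during compound exposure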
UUG fidelity: yeast start codon fidelity modulation; AID 602363; activity score, % at 18.7 µM; S. cerevisiae UUG-firefly luciferase reporter, luminescence/redox ratio; 0.13% of 350,000 active;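 active means replicate mean at a twofold rise or more, about +100% in these data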;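 further: firefly luciferase made from a UUG start codon reports start codon fidelity; reporter light over untreated wells divided by growth signal over untreated wells; some hits fall short of that in this replicate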
CDK5 inh: inhibitors of human CDK5/p35 kinase. Recombinant CDK5/p35, ADP-Glo luminescence, 60 min. inhibition, % at 10 µM. 330,000 tested, 0.01% active;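 active means highest replicate inhibition of at least 50% and at least 75% of replicates reaching 50%; inconclusive means only one of the two criteria met; inactive means both criteria failed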;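 further: plate controls were DMSO neutral control for no effect and GW8510 at 10 µM for full effect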
Cneo AK release: Cryptococcus neoformans lysis via adenylate kinase release | C. neoformans lysis, adenylate kinase release luminescence, 4 h; normalised: neutral wells 0, clomiphene wells 100 | lysis activity, % at 15 µM | 360,000 tested, 0.2% active;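 active means mean lysis activity across replicates of at least 80%, whatever share of replicates individually reach that level; inactive means mean lysis activity below 80%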
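Material – log-phase Cryptococcus neoformans yeast cells · Input – 5 × 10^6 yeast cells/mL · Medium – fresh YPD growth medium · Doses – single compound concentration per well · Timing – static 4 h at 37 °C with compound, 1 h detection · Detection – adenylate kinase release luminescence · Read-out – signal increase indicating cell lysis · Control set – Clomiphene as positive lysis control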
Rtt109 HAT inh: blocks Candida albicans Rtt109/Vps75 acetyltransferase activity | Q5AAJ8 | purified Rtt109/Vps75, ThioGlo CoA-SH fluorescence, 4 h | inhibition, % at 34.9 µM | 330,000 tested, 0.16% active;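 active means inhibition of at least 50% in every replicate; inconclusive means best replicate reaches 50% inhibition but some replicates fall short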
The depositor's hits bear a star; ! = a repeat was not active. Hits are enriched below; roughly 1% of the tested compounds scored in any of these assays.

What do the screens show for `CCCCN(CC)CCNC(=O)c1cc2c(=O)n(CC)c3ccccc3c2s1`?
Statin myotox sup: 7.2; UUG fidelity: 5.6; CDK5 inh: 3.1; Cneo AK release: -1.5; Rtt109 HAT inh: -11.4

How did CCSC1(SCC)N=C(N)C2(C#N)C(c3ccc(F)cc3)C12C#N (configuration not stated) do in these assays?
Statin myotox sup: 141.8*; UUG fidelity: -3.3; CDK5 inh: -1.5; Cneo AK release: 9.9; Rtt109 HAT inh: -4.8

How did COC1(OC)N=C(N)C2(C#N)C(c3ccc(F)cc3)C12C#N (configuration not stated) do in these assays?
Statin myotox sup: -10.0; UUG fidelity: -6.5; CDK5 inh: -3.8; Cneo AK release: -1.8; Rtt109 HAT inh: -23.5

Results for COc1cccc(C(=O)N(C)c2nnc(-c3ccncc3)s2)c1 ?
Statin myotox sup: 82.3*; CDK5 inh: 1.3; Rtt109 HAT inh: -6.2

What do the screens show for `COc1cccc(-c2nnc(N(C)C(=O)C3CCOC3)s2)c1` (configuration not stated)?
Statin myotox sup: 97.1*; UUG fidelity: -20.0; CDK5 inh: -0.5; Cneo AK release: 0.4; Rtt109 HAT inh: 4.8

Results for CN(C(=O)c1cccc(C#N)c1)c1nnc(-c2ccncc2)s1 ?
UUG fidelity: -7.0; CDK5 inh: 0.4; Cneo AK release: 1.1; Rtt109 HAT inh: -6.9

What do the screens show for `COc1ccc(-c2nnc(N(C)C(=O)c3ccco3)s2)cc1OC`?
Statin myotox sup: 22.8; UUG fidelity: -9.6; CDK5 inh: 1.9; Cneo AK release: 1.5; Rtt109 HAT inh: 13.9

Results for Cc1nnc(N(C)C(=O)c2cccnc2)s1 ?
Statin myotox sup: 86.6*; UUG fidelity: -6.2; CDK5 inh: 0.7; Cneo AK release: 0.0; Rtt109 HAT inh: 5.9

How did COc1ccc(NC(=O)N(C)C[C@@H]2OCCCC[C@@H](C)Oc3ccc(NS(=O)(=O)c4ccc(OC)cc4)cc3C(=O)N([C@@H](C)CO)C[C@H]2C)cc1 do in these assays?
UUG fidelity: 7.6; Cneo AK release: 54.1

What do the screens show for `O=C1NNC(=O)C1c1ccccc1`?
Statin myotox sup: 22.5; UUG fidelity: -11.9; CDK5 inh: -6.9; Cneo AK release: -2.4; Rtt109 HAT inh: -8.4

Results for O=C1C(c2ccccc2)C(c2ccccc2)NC(c2ccccc2)C1c1ccccc1 (configuration not stated) ?
Statin myotox sup: 110.6*; UUG fidelity: -7.7; CDK5 inh: 0.5; Cneo AK release: 3.3; Rtt109 HAT inh: -10.8

What do the screens show for `C[C@H](CO)N1C[C@H](C)[C@@H](CN(C)C(=O)Nc2ccc(N3CCCCC3)cc2)OCc2cn(nn2)CCCC1=O`?
Statin myotox sup: 11.4

Results for CO[C@@H](CN(C)Cc1cc(F)ccc1F)[C@@H](C)CN([C@H](C)CO)S(=O)(=O)c1ccc(F)cc1 ?
Statin myotox sup: -9.7; Cneo AK release: 102.3*

Results for CO[C@H](CN(C)S(=O)(=O)c1ccccc1)[C@H](C)CN(C(=O)Nc1ccccc1F)[C@H](C)CO ?
Statin myotox sup: 14.8; Cneo AK release: -8.6

Results for C[C@H](CO)N1C[C@H](C)[C@H](CN(C)S(=O)(=O)c2ccccc2F)Oc2cc(-c3ccccc3)ccc2S1(=O)=O ?
Statin myotox sup: -100.1; UUG fidelity: -14.9; Cneo AK release: -5.5

4 records picked at random from those above:
Results for CO[C@H](CN(C)S(=O)(=O)c1ccccc1)[C@H](C)CN(C(=O)Nc1ccccc1F)[C@H](C)CO ?
Statin myotox sup: 14.8; Cneo AK release: -8.6

How did CCSC1(SCC)N=C(N)C2(C#N)C(c3ccc(F)cc3)C12C#N (configuration not stated) do in these assays?
Statin myotox sup: 141.8*; UUG fidelity: -3.3; CDK5 inh: -1.5; Cneo AK release: 9.9; Rtt109 HAT inh: -4.8

What do the screens show for `C[C@H](CO)N1C[C@H](C)[C@@H](CN(C)C(=O)Nc2ccc(N3CCCCC3)cc2)OCc2cn(nn2)CCCC1=O`?
Statin myotox sup: 11.4

What do the screens show for `CCCCN(CC)CCNC(=O)c1cc2c(=O)n(CC)c3ccccc3c2s1`?
Statin myotox sup: 7.2; UUG fidelity: 5.6; CDK5 inh: 3.1; Cneo AK release: -1.5; Rtt109 HAT inh: -11.4

(more compounds)
How did C[C@H]1CN([C@@H](C)CO)S(=O)(=O)c2ccc(Br)cc2O[C@@H]1CN(C)S(=O)(=O)c1ccccc1F do in these assays?
Statin myotox sup: 38.0; UUG fidelity: 13.4; Cneo AK release: 93.7*!

Results for C[C@H]1CN([C@@H](C)CO)S(=O)(=O)c2ccc(-c3ccccc3)cc2O[C@H]1CN(C)S(=O)(=O)c1ccccc1F ?
Statin myotox sup: -58.8; UUG fidelity: -16.3; Cneo AK release: -5.5

What do the screens show for `C/C=C/c1ccc2c(c1)O[C@H](CN(C)S(=O)(=O)c1ccccc1)[C@H](C)CN([C@@H](C)CO)S2(=O)=O`?
Statin myotox sup: 9.8; UUG fidelity: 24.1; Cneo AK release: 89.9*

How did C[C@H]1CN([C@@H](C)CO)S(=O)(=O)c2ccc(Br)cc2O[C@H]1CN(C)S(=O)(=O)c1ccccc1F do in these assays?
Statin myotox sup: 6.9; UUG fidelity: -7.7; Cneo AK release: 103.7*!

How did C[C@@H]1CCCCO[C@@H](CN(C)S(=O)(=O)c2cn(C)cn2)[C@H](C)CN([C@@H](C)CO)C(=O)c2cc(NS(=O)(=O)c3cccs3)ccc2O1 do in these assays?
Statin myotox sup: -32.9; UUG fidelity: 35.4; Cneo AK release: 49.8

Results for C[C@H]1CN([C@@H](C)CO)C(=O)c2cc(-c3ccncc3)cnc2O[C@@H]1CN(C)Cc1ccc(F)cc1 ?
Statin myotox sup: -0.1; UUG fidelity: -5.1; Cneo AK release: -0.3

How did Cn1c(=O)n(CC(=O)NC2CCCCC2)c(=O)c2ccccc21 do in these assays?
Statin myotox sup: 72.1*; UUG fidelity: -19.3; CDK5 inh: -0.2; Cneo AK release: -0.3; Rtt109 HAT inh: 6.1

How did Cn1c(=O)c2ccccc2n(CC(=O)NC2CCCCC2)c1=O do in these assays?
Statin myotox sup: 8.4; UUG fidelity: -7.6; CDK5 inh: 3.1; Cneo AK release: 0.6; Rtt109 HAT inh: 15.2

What do the screens show for `CCOC(=O)C(C)n1nc(/C=C/c2ccccc2)ccc1=O` (configuration not stated)?
Statin myotox sup: 117.9*; UUG fidelity: -3.9; CDK5 inh: -0.1; Cneo AK release: -5.5; Rtt109 HAT inh: -36.2

How did O=C(C[C@H]1CC[C@H]2[C@@H](COC[C@H](O)CN2Cc2ccccc2F)O1)NC1CCC1 do in these assays?
Statin myotox sup: 4.5; UUG fidelity: 13.2; Cneo AK release: 54.4

What do the screens show for `CCN1C=CC(=C2C(=O)c3ccccc3C2=O)C=C1`?
Statin myotox sup: -53.7; UUG fidelity: -90.7; CDK5 inh: 6.7; Cneo AK release: -5.8; Rtt109 HAT inh: 79.8*

What do the screens show for `CCCN1C=CC(=C2C(=O)c3ccccc3C2=O)C=C1`?
Statin myotox sup: -63.8; UUG fidelity: -92.4; CDK5 inh: 8.4; Cneo AK release: -5.3; Rtt109 HAT inh: 7.3

Results for CCN1/C(=C/c2ccc3cc(C)ccc3[n+]2CC)Sc2cc(C)c(C)cc21 ?
Statin myotox sup: -80.1; CDK5 inh: 3.1; Rtt109 HAT inh: 96.0*

Results for CCN1/C(=C/c2ccc3cc(C)ccc3[n+]2CC)Sc2ccccc21 ?
CDK5 inh: 1.9; Rtt109 HAT inh: inconclusive

Results for C[C@@H]1CN([C@H](C)CO)C(=O)c2cccc(NS(=O)(=O)c3ccc(F)cc3)c2O[C@H]1CN(C)Cc1ccncc1 ?
Statin myotox sup: -13.0; UUG fidelity: -13.3; Cneo AK release: -0.1

Results for CCC1(C)Cc2ccccc2C(=S)N1 (configuration not stated) ?
Statin myotox sup: 87.9*; UUG fidelity: -8.7; CDK5 inh: -2.0; Cneo AK release: 2.0
